Measured values taken from patent US20180110799A1, “Compositions and Methods for the Inhibition of Chondrogenesis” (The Children's Hospital of Philadelphia, priority 2014, published 2018).

System: endogenous heparanase
Assay: Immunoblot of endogenous heparanase protein in micromass cultures
Type: cell-based, mouse
Conditions: 100 ng/ml; day 2 micromass cultures treated 24 or 48 hours; densitometry
Protocol: Micromass cultures were prepared from the mesenchymal cells of E11.5 mouse embryo limb buds (Ahrens et al. (1979) Dev. Biol., 69:436-50). Dissociated cells were suspended at a concentration of 5×10^6 cells/ml in DMEM containing 3% fetal bovine serum and antibiotics. Micromass cultures were initiated by spotting 20 μl of the cell suspensions (1.5×10^5 cells) onto the surface of 24-well tissue culture dishes. After a 90-minute incubation at 37° C. in a humidified CO2 incubator to allow for cell attachment, the cultures were supplied with 0.25 ml of medium. After 24 hours, medium supplemented with the indicated concentrations of Surfen (bis-2-methyl-4-aminoquinolyl-6-carbamide), bacterial heparitinase III (Sigma), recombinant human BMP2 (R&D Systems), recombinant human heparanase, or roneparstat (Sigma-Tau Research S.A.). Fresh reagents (drug and/or protein) were given with medium change every other day. Equivalent amounts of vehicle were added to control cultures. […]
ATDC5 cells were grown to 100% confluence in 6-well plates and treated with indicated concentrations of Surfen, bis-2-methyl-4-amino-quinolyl-6-carbamide. […] The membranes were re-blotted with antibodies to α-tubulin (Sigma T-5168, 1:2000) for normalization, and band intensities were quantified by computer-assisted image analysis.

“rhBMP2: recombinant human BMP2 (R&D Systems)” was tested, and the “increase of endogenous heparanase protein levels” value was “about 2 fold”.
